From patent publication US6362236B1, “Inhibition of lipoprotein oxidation” (Warner-Lambert Company, priority 1997, dated 2002)

Test system: LDL
Test: Copper ion (CuSO4)-induced LDL oxidation
Type: biochemical, human
Details: 10 μM CuSO4; control 50±7; n=3

| Compound | lag time required for the initiation of LDL oxidation (conjugated dienes formation at 234 nm) [min] |
| --- | --- |
| CC(C)c1c(C(=O)Nc2ccc(O)cc2)c(-c2ccccc2)c(-c2ccc(F)cc2)n1CC[C@@H](O)C[C@@H](O)CC(=O)O [para-hydroxy metabolite, para-hydroxy atorvastatin] | 180 ± 25 |
| CC(C)c1c(C(=O)Nc2ccccc2O)c(-c2ccccc2)c(-c2ccc(F)cc2)n1CC[C@@H](O)C[C@@H](O)CC(=O)O [ortho-hydroxy metabolite, ortho-hydroxy atorvastatin] | 180 ± 25 |
| CC(C)c1c(C(=O)Nc2ccccc2)c(-c2ccccc2)c(-c2ccc(F)cc2)n1CC[C@@H](O)C[C@@H](O)CC(=O)O [atorvastatin, reference compound] | 50 ± 7 |
